This experiment deals with Interleukin-1 receptor-associated kinase 4 (Homo sapiens, UniProt Q9NWZ3).

By UniProt entry, the sequences of proteins in these tests, tags left out.
UniProt Q9NWZ3, whole entry: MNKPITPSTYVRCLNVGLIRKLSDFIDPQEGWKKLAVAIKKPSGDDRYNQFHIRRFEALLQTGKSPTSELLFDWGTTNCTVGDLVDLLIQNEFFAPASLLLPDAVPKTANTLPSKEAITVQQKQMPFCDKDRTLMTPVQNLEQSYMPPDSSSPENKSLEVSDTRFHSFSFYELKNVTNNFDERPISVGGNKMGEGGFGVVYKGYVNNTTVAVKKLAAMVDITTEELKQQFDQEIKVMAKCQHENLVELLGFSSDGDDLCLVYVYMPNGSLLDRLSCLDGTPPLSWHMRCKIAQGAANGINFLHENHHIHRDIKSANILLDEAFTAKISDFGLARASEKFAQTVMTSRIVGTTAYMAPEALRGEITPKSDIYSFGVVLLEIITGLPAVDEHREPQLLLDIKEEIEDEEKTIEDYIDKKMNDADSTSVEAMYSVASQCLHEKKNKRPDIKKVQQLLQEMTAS

`COc1cc2c(OC[C@@H]3NC(=O)[C@H](F)[C@@H]3C)nccc2cc1C(N)=O` had an IC50 of 34 nM.

In turn, `COc1cc2c(OC[C@H]3NC(=O)[C@@]4(F)C3[C@H]4C)nccc2cc1C(N)=O` (stereo in doubt) showed an IC50 of 10 nM.
